This is an account of results in patent US10988792B2, “Methods for antimicrobial resistance determination” (bioMerieux, Inc., priority 2009, dated 2021).

This experiment has as its system E. faecium 14054 (VSE). As to the kind of experiment: Co-culture with vancomycin and Sytox Green, intrinsic fluorescence and membrane integrity of pellet. The experiment is classed as cell-based. Particulars: for Microbial NADH fluorescence (Ex340 nm/Em440 nm) / Microbial tryptophan fluorescence (Ex300 nm/Em360 nm): 14054 (VSE). As to the method: For each test strain, a 1 μL loopful of colonies from a 24-48 hour plate was suspended in 10-12 mL of BacT/ALERT SA media and cultured for 4-9 hours at 37° C. Samples of each log phase culture were then incubated with 0, 0.25, 2.5 and 12.5 μg/mL of vancomycin-HCl in combination with 1:5000 dilution of stock Sytox Green, a viable cell impermeant DNA stain (Molecular Probes, cat #S7020), for a period of 4 hours at 37° C. Aliquots of the cultures were removed for analysis immediately (T0) and after 1, 2.5 and 4 hours.
At the appropriate time-point, 0.5 mL aliquots of the cultures (0.5 mL) were overlaid on a density cushion composed of 24% w/v CsCl in 10 mM Hepes, pH 7.4 and 0.005% Pluronic F-108 contained in custom-made optical centrifugation tubes as disclosed in related U.S. patent application, Ser. No. 12/589,969, entitled “Separation Device for Use in the Separation, Characterization and/or Identification of Microorganisms”, filed Oct. 30, 2009. The tubes were sealed and centrifuged at 10,000 rpm for 2 minutes to separate intact microorganisms from the culture medium and unbound chemicals. The tubes were then placed into a custom-built tube holder directly onto a fiber optic probe built into the base. The probe was attached to a FluoroLog 3 spectrofluorimeter. The tube was interrogated through its UV-transparent base, and fluorescence and diffuse reflectance readings collected.

The mark [1] stands for this setting: VSE strain 14054, vancomycin 2.5 and 12.5 μg/mL.

Consider `CN[C@H](CC(C)C)C(=O)N[C@H]1C(=O)N[C@@H](CC(N)=O)C(=O)N[C@H]2C(=O)N[C@H]3C(=O)N[C@H](C(=O)N[C@H](C(=O)O)c4cc(O)cc(O)c4-c4cc3ccc4O)[C@H](O)c3ccc(c(Cl)c3)Oc3cc2cc(c3O[C@@H]2O[C@H](CO)[C@@H](O)[C@H](O)[C@H]2O[C@H]2C[C@](C)(N)[C@H](O)[C@H](C)O2)Oc2ccc(cc2Cl)[C@H]1O` [vancomycin], for which the “Microbial NADH fluorescence (Ex340 nm/Em440 nm)” value (shortened to “Microbial NADH fluorescence”) (Vanc. 0.25 μg/mL, 1 hour) is on record as 298,998; the “Microbial NADH fluorescence” value (Vanc. 0.25 μg/mL, 2.5 hour) is on record as 733,656; the “Microbial NADH fluorescence” value (Vanc. 0.25 μg/mL, 4 hour) is 534,989; the “Microbial NADH fluorescence” value (Vanc. 0.25 μg/mL, Zero time) is given as 449,599; the “Microbial NADH fluorescence” value (Vanc. 2.5 μg/mL, 1 hour) is on record as 195,152; the “Microbial NADH fluorescence” value (Vanc. 2.5 μg/mL, 4 hour) is 96,954. The “Microbial NADH fluorescence” value runs as follows: (Vanc. 2.5 μg/mL, Zero time) 290,986; (Vanc. 12.5 μg/mL, 1 hour) 188,273; (Vanc. 12.5 μg/mL, 2.5 hour) 128,491; (Vanc. 12.5 μg/mL, 4 hour) 109,080. For the same molecule, the “Microbial tryptophan fluorescence (Ex300 nm/Em360 nm)” value is, setting by setting: (Vanc. 0.25 μg/mL, 1 hour) 601,874; (Vanc. 0.25 μg/mL, 2.5 hour) 670,217; (Vanc. 0.25 μg/mL, 4 hour) 808,566; (Vanc. 0.25 μg/mL, Zero time) 387,455; (Vanc. 2.5 μg/mL, 1 hour) 431,754; (Vanc. 2.5 μg/mL, 2.5 hour) 437,349. The “Microbial tryptophan fluorescence (Ex300 nm/Em360 nm)” value is listed as 428,796 (Vanc. 2.5 μg/mL, 4 hour); 369,386 (Vanc. 2.5 μg/mL, Zero time); 421,876 (Vanc. 12.5 μg/mL, 1 hour); 387,066 (Vanc. 12.5 μg/mL, 2.5 hour); 403,029 (Vanc. 12.5 μg/mL, 4 hour); 384,046 (Vanc. 12.5 μg/mL, Zero time). Besides, the “Course of cellular NADH levels” value under setting [1] is reported as “gradually declined over time”. Moreover, the “Course of cellular tryptophan levels” value under setting [1] was “remained stable over time”.
